# In the NIST ThermoML archive (doi:10.1016/j.jct.2011.06.007):
# Assay: activity coefficient (dimensionless); of the first substance listed, at infinite dilution; xn = mol fraction of the nth substance listed
# Details: 101 kPa, Liquid, Chromatography, x1 = 0
smiles,measurement,setting,value
CCCCOCCCC [dibutyl ether] + CCCC[N+]1(C)CCCC1.N#C[B-](C#N)(C#N)C#N,activity coefficient,318.15 K,11.6 ± 0.8
same,activity coefficient,328.15 K,10.9 ± 0.7
same,activity coefficient,338.15 K,10.6 ± 0.7
same,activity coefficient,348.15 K,10.2 ± 0.7
same,activity coefficient,358.15 K,9.7 ± 0.7
same,activity coefficient,368.15 K,8.41 ± 0.57

# ± gives the expanded uncertainty stated by the source.
